From ChEMBL document CHEMBL1139598, “A discriminant model constructed by the support vector machine method for HERG potassium channel inhibitors” (Bioorg Med Chem Lett, 2005)

Amino acid sequences for entries named in this document (tags omitted). A change or cut given only in a name is not applied to a line headed by its entry.
UniProt Q12809: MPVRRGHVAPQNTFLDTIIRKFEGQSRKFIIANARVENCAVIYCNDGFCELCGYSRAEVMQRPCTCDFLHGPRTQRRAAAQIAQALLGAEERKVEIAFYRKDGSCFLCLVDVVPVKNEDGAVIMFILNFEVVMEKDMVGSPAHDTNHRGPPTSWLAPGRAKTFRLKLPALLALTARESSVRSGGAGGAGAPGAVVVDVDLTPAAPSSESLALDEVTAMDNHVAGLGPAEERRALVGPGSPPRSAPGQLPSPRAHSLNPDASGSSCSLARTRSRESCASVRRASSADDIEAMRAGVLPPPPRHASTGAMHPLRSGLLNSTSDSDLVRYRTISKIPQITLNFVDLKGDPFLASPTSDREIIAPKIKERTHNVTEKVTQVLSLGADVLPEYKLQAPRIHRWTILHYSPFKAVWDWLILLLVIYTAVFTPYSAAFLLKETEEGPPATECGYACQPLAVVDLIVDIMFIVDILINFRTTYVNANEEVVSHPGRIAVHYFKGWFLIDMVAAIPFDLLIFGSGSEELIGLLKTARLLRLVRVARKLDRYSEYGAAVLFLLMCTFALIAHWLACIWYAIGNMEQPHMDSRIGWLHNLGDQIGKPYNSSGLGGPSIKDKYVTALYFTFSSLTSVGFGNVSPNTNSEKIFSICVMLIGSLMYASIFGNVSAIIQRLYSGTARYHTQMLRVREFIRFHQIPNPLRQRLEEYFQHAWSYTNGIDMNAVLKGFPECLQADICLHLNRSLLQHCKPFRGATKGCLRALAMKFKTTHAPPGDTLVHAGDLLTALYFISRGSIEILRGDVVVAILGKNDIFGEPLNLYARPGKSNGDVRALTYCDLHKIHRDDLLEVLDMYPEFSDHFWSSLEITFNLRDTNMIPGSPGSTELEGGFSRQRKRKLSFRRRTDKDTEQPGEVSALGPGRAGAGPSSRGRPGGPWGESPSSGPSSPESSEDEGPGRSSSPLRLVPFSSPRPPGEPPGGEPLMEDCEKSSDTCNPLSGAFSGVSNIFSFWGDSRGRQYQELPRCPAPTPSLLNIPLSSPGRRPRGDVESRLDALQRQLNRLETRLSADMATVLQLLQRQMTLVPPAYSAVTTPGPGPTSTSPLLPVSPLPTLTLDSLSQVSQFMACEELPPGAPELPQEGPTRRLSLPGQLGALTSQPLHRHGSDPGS

Target: Voltage-gated inwardly rectifying potassium channel KCNH2 (Homo sapiens, UniProt Q12809)

CN1CCCCC1CCN1c2ccccc2Sc2ccc([S+](C)[O-])cc21 (stereo unspecified) [MESORIDAZINE]
IC50: 550 nM
